The values that follow come from PMC9885488 (Journal of medicinal chemistry, 2022).

The nature of this series: Thermodynamic solubility in water. The series is classed as physicochemical.

Take `Cl.Nc1ncc(-c2cnc3ccc(C(=O)N4CCCCC4)cc3n2)cc1Cl` [Compound 40, (3-(6-Amino-5-chloropyridin-3-yl)quinoxalin-6-yl)(piperidin-1-yl)methanone]: the “aq. sol. of HCl salt” value (solubility of HCl salt) came out at 26 µg/mL. The molecule also gave an aq. sol. (water, stirred 18 hours) of 2.1 µg/mL.
